Results published in US20260091086A1, “POLYPEPTIDE COMBINATIONS AND USES THEREOF” (MEDIMMUNE LIMITED, priority 2024, published 2026).

Test system: hAMYR as compared to hCTR
Assay: Selectivity hAMYR over hCTR by cAMP release
Type: cell-based, human

In the case of `CC[C@H](C)[C@H](NC(=O)[C@@H]1CCCN1C(=O)CNC(=O)[C@H](Cc1ccccc1)NC(=O)[C@H](CC(N)=O)NC(=O)[C@H](CC(N)=O)NC(=O)[C@H](CO)NC(=O)[C@H](CO)NC(=O)[C@H](Cc1c[nH]cn1)NC(=O)[C@@H](NC(=O)[C@H](CC(C)C)NC(=O)[C@H](Cc1ccccc1)NC(=O)[C@H](CC(N)=O)NC(=O)[C@H](C)NC(=O)[C@H](CC(C)C)NC(=O)[C@H](CCCNC(=N)N)NC(=O)[C@H](CCC(N)=O)NC(=O)[C@@H](NC(=O)[C@H](C)NC(=O)[C@@H]1CSSC[C@H](NC(=O)[C@@H](N)CCCCN)C(=O)N[C@@H](CC(N)=O)C(=O)N[C@@H]([C@@H](C)O)C(=O)N[C@@H](C)C(=O)N[C@@H]([C@@H](C)O)C(=O)N1)[C@@H](C)O)C(C)C)C(=O)N[C@@H](CC(C)C)C(=O)N1CCC[C@H]1C(=O)N1CCC[C@H]1C(=O)N[C@H](C(=O)N[C@@H](CC(N)=O)C(=O)N[C@H](C(=O)NCC(=O)N[C@@H](CO)C(=O)N[C@@H](CC(N)=O)C(=O)N[C@H](C(=O)N[C@@H](Cc1ccc(O)cc1)C(N)=O)[C@@H](C)O)C(C)C)[C@@H](C)O` [Pramlintide], the “selectivity to hAMYR as compared to hCTR” value is reported as “at least 10 fold”.
